According to patent publication US11452775B2, “Detection of arginine methylation of EGFR for prediction of resistance to therapy” (Board of Regents, The University of Texas System, priority 2013, dated 2022):

System: EGFR
Test: Flow cytometry of APC-conjugated EGF binding to EGFR in SW48 cells, with or without cetuximab
Assay type: cell-based
Conditions: SW48 cells expressing PRMT1

With cetuximab the “cetuximab response (reduction of EGF binding)” value was 50%.
